This assay concerns the target DPP IV (Mus musculus, UniProt P28843). In words: biochemical.

The chains behind the UniProt entries cited, without tags or fusion partners. Where a name states a change or a piece, a line headed by the entry shows the natural chain unless it says otherwise.
UniProt P28843: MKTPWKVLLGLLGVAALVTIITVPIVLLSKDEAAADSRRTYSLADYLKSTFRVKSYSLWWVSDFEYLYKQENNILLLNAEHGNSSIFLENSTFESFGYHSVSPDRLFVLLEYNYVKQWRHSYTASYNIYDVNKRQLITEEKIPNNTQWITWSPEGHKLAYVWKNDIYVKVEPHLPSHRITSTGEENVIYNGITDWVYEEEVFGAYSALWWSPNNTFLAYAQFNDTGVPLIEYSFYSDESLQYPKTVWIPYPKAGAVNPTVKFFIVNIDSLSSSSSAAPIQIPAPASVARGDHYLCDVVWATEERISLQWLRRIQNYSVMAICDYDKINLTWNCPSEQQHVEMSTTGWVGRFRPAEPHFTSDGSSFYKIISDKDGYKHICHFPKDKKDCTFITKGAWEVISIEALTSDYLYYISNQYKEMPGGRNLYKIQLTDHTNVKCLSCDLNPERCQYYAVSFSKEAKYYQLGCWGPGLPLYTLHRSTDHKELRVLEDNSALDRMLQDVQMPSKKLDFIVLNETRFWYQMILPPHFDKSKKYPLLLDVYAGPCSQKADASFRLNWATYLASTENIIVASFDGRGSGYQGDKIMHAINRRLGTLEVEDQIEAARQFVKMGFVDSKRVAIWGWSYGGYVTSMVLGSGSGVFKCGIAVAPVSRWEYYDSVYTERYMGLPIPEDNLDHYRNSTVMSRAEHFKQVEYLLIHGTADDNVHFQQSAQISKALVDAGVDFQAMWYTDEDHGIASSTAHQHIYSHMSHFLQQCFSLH

For `N[C@@H](CC(=O)N1CCn2c(nnc2C(F)(F)F)C1)Cc1cc(F)c(F)cc1F` [Sitagliptin], the EC50 is about 49.1 nM.

For the origin of these results see patent publication US20230042729A1, “PEPTIDE CONSTRUCTS AND COMPOSITIONS” (DIET4LIFE APS, priority 2019, published 2023).
